Measured values reported in ChEMBL document CHEMBL3612033, “Synthesis of 3,4-diaminobenzoyl derivatives as factor Xa inhibitors” (Eur J Med Chem, 2015).

Target: T1, Coagulation factor X (Oryctolagus cuniculus) (UniProt O19045)
T1 sequence (whole entry): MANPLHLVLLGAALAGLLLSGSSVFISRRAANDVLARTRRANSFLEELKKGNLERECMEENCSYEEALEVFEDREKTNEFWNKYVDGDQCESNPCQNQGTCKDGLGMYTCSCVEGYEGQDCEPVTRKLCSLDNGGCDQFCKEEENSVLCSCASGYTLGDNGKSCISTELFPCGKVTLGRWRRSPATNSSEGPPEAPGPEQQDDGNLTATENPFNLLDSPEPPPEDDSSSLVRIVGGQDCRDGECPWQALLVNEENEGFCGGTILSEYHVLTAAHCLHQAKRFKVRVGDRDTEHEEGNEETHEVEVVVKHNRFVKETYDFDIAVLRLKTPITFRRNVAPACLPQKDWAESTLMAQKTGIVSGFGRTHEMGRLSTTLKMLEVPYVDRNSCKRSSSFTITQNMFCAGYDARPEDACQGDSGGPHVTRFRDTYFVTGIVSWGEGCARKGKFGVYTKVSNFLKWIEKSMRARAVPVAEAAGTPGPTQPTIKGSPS
Experiment: Inhibition of F10a in rabbit plasma assessed as ratio of compound prothrombin time to vehicle control prothrombin time at 100 nM after 2 mins by automatic coagulation analyser

| SMILES | Ratio |
| --- | --- |
| NC(=O)c1ccc(NC(=O)c2ccc(-n3ccccc3=O)cc2)c(NC(=O)c2ccc(Cl)c(Cl)c2)c1 | 2.58 |
| NC(=O)c1ccc(NC(=O)c2ccc(-n3ccccc3=O)cc2)c(NC(=O)c2ccc(Br)cc2)c1 | 2.14 |
